# Laboratory results: PubChem BioAssay AID720658 (The Scripps Research Institute Molecular Screening Center, 2013)
# The chains behind the UniProt entries cited, without tags or fusion partners. Where a name states a change or a piece, a line headed by the entry shows the natural chain unless it says otherwise.
# UniProt Q8VD66: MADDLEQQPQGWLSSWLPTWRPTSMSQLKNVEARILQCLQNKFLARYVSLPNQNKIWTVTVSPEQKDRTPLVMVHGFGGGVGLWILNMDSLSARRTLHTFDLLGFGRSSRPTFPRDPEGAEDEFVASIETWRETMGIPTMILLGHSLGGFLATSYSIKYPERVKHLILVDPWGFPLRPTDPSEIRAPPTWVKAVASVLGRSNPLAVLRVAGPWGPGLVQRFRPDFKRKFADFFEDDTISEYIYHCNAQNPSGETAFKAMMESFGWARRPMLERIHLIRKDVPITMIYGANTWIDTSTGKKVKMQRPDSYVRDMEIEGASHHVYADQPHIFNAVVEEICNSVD
# Only a part is listed here, and it is no random draw. The source made the active and inactive calls.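 How the source made its calls: active means mean inhibition across replicates above the hit cutoff set in the primary screen (cut at about 30% in these data); inactive means the rest.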
# Target: (Lyso)-N-acylphosphatidylethanolamine lipase (Mus musculus) (UniProt Q8VD66)
# Experiment: mouse ABHD4 hydrolase blockers, triplicate – biochemical, fluorescence polarization, confirmation (AID 720658)
# Details: purified mABHD4, FP-Rh probe fluorescence polarization; at 8.92 µM; hits give high values
# Summary of the method: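 Test system: wild-type mouse ABHD4. Medium: HEPES-saline buffer with 0.01% Pluronic F-127. Doses: single nominal compound dose 8.92 µM, 0.89% DMSO final. Timing: pre-incubation 45 min, probe exposure 60 min, 25 °C. Technique: FP readout, ex 525 nm, em 598 nm. Control set: S159A mutant ABHD4 plus DMSO as 100%, wild-type plus DMSO 0%.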
row,SMILES,inhibition
1,Nc1cccc2c([As](=O)(O)O)cccc12,inactive: 27.4%
2,O=[N+]([O-])c1cc([N+](=O)[O-])c(CCNc2ccccc2)c([N+](=O)[O-])c1,inactive: 22.3%
